Results from patent publication US7906624B2, “Binding peptidomimetics and uses of the same” (The Trustees of the University of Pennsylvania, priority 2004, dated 2011).

System: T6-17 cells injected subcutaneously into nude mice
Assay: T6-17 tumor growth in nude mice
Format: in vivo
Details: second (intraperitoneal) experiment, after day 10
Method: FIG. 6, panels A and B show inhibition of tumor growth by ASA. 1 million of T6-17 cells were injected subcutaneously into nude mice to induce the tumor growth. Panel A. Treatment of ASA started from day 0. Panel B. Treatment started on day 2 after tumor were palpable. NCR homozygous athymic (nude) mice (six to eight weeks-old) were purchased from the National Cancer Institute. To induce tumor, 10^6 transformed T6-17 cells were suspended in 100 μl of PBS and injected subcutaneously into the flank of each animal. Animals were maintained in accordance with guidelines of the Institutional Animal Care and Use Committee (IACUC) of the University of […]. Tumor volume was calculated by the formula: π*length*width*Height/6. T6-17 cells were transformed by the over-expression of human Her2/neu (ref). After introduced to nude mice subcutaneously, palpable tumors appear about 48-72 hours later. In one experiment, animals were treated with either streptavidin or ASA (11.25 mg/kg/week). Treatment stared from day 0 and was provided to animals by three subcutaneous injections each week. Treatment with ASA prevented the appearance of palpable tumor until day 7 and reduced the tumor size by 62% at day 14 (FIG. 6 Panel A). […]

## 4D5scFv: Single chain Fv of anti-HER2 antibody 4D5, comparator in the tumor experiment [reference compound]
  suppression of tumor growth: did not reveal significant suppression of tumor-growth-after day 10
